Laboratory results published in PubChem BioAssay AID624168 (Sanford-Burnham Center for Chemical Genomics, 2012).
Only a part is listed here, and it is no random draw. Active and inactive are the calls of the source.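 How the source made its calls: active means activation of at least 8% versus controls, or a plate z-score of at least 8; inactive means the rest.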

Test: activators of alpha-DG glycosylation, primary screen, uHTS, Pro5-aDG cells, AlphaScreen (AID 624168);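 further: Pro5 are CHO cells carrying HIG-tagged alpha-DG that lacks glycosylation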
Settings: alpha-DG glycosylation AlphaScreen (IIH6), at 10 µM, hits give high values, 0% Pro5, 100% B10-LARGE cell signal

Structure (SMILES) | activation
O=P1(Nc2nc3ccc(Cl)cc3s2)COc2ccccc2O1 (stereo not drawn) | inactive: 0%
CCOc1ccc(C2=NCC(CBr)S2)cc1 (stereo not drawn) | inactive: 0.4%
CCc1cc(O)c([N+](=O)[O-])c(C)c1[N+](=O)[O-] | inactive: -0.2%
CC(C)(C)C(=O)NC(Sc1ccccc1)C(Cl)(Cl)Cl (stereo not drawn) | inactive: 0.2%
N#C/C(=C\c1ccc(N(CCBr)CCBr)cc1)C(N)=O | inactive: -0.1%
CC(=O)c1ccc(N2CC2c2ccncc2)cc1 (stereo not drawn) | inactive: 0.3%
COC(=O)C1(C)COP(=O)(NCc2ccccc2)OC1 (stereo not drawn) | inactive: -0.1%
Cc1ccccc1CN(C)C(=O)COC(=O)C(O)(c1ccccc1)c1ccccc1 | inactive: 1.9%
C[C@@H]1C=CCP(=O)(Oc2ccccc2)O1 (stereo partly drawn) | inactive: -0.3%
C[C@H]1OP(=O)(Oc2ccccc2)C[C@@H]2O[C@@H]21 (stereo partly drawn) | inactive: -0.2%
CC(=O)Nc1ccc([As](=O)(O)O)c(O)c1 | inactive: -0.1%
CC(=O)Nc1ccc(Oc2c([N+](=O)[O-])cc([N+](=O)[O-])cc2[N+](=O)[O-])cc1 | inactive: 0%
O=C(NC1CCS(=O)(=O)C1)NP(=S)(Oc1ccccc1)Oc1ccccc1 (stereo not drawn) | inactive: 0.1%
CCNC(=S)/N=C(\N)N[N+](=O)[O-] | inactive: -0.4%
c1ccc(-c2nn[nH]n2)c(-c2nn[nH]n2)c1 | inactive: -0.4%
Cc1ccc(NP(=O)(Oc2cccc(C)c2)Oc2cccc(C)c2)nc1 | inactive: 0%
O=P1(N(CCCl)CCCl)OCCC2CCCCN21 (stereo not drawn) | inactive: 0%
COC(=O)c1cc2c(s1)N=C(c1ccccc1)N(C)P2(=O)N1CCOCC1 (stereo not drawn) | inactive: -0.2%
CC(=O)NC(SC(=S)N(CC(C)C)CC(C)C)C(Cl)(Cl)Cl (stereo not drawn) | inactive: -0.6%
Cc1ccc(OP(=O)(Nc2ccccn2)Oc2ccc(C)cc2)cc1 | inactive: 1.6%
O=C(OC1CN2CCC1CC2)c1ccccc1 (stereo not drawn) | inactive: -0.1%
CCC(=O)N1C2C3N(C(=O)CC)C1C1N(C(=O)CC)C(C(N1C(=O)CC)N3C(=O)CC)N2C(=O)CC | inactive: -0.4%
Cc1ccccc1OP(=O)(Nc1ccccn1)Oc1ccccc1C | inactive: 0.3%
CC(NC(=O)COC(=O)C(O)(c1ccccc1)c1ccccc1)c1ccccc1 (stereo not drawn) | inactive: 0%
CN(C)C(=O)Oc1noc2ccccc12 | inactive: 0.1%
O=c1c2cc([N+](=O)[O-])ccc2[nH]c2c([N+](=O)[O-])cc([N+](=O)[O-])cc12 | inactive: -0.4%

Structure (SMILES) | activation
Nc1ccc(CCCCOc2ccccc2)cc1 | inactive: -0.1%
COc1ccc(N)c([N+](=O)[O-])c1[N+](=O)[O-] | inactive: 0.2%
CN(C)C1(CNC(=O)c2ccc(Cl)c(S(N)(=O)=O)c2)CCCCC1 | inactive: -0.1%
O=P(Nc1ccccn1)(c1ccc(Br)cc1)c1ccc(Br)cc1 | inactive: 0.7%
O=P(Nc1nc2ccccc2s1)(c1ccccc1)c1ccccc1 | inactive: -0.1%
C[C@H]1OP(=O)(Oc2ccccc2)[C@H](O)[C@H](O)[C@H]1N=[N+]=[N-] (stereo partly drawn) | inactive: -0.2%
CC(=O)NC(SC(=S)N(C)C)C(Cl)(Cl)Cl (stereo not drawn) | inactive: -0.1%
O=[N+]([O-])c1ncn(CCn2cnc([N+](=O)[O-])n2)n1 | inactive: 0%
O=[N+]([O-])c1ccc(O)c(/C=N/Nc2ccc([N+](=O)[O-])cc2[N+](=O)[O-])c1 | inactive: -0.4%
O=[As](O)(c1ccccc1)c1ccc(O)cc1 | inactive: 0%
Nc1ccc([As](=O)(O)c2ccc([N+](=O)[O-])cc2)cc1 | inactive: 0.5%
C(Cc1nn[nH]n1)Cc1nn[nH]n1 | inactive: -0.1%
O=C(OC1CN2CCC1CC2)c1cccc(Cl)c1 (stereo not drawn) | inactive: -0.1%
O=P(Nc1nccs1)(c1ccccc1)c1ccccc1 | inactive: -0.4%
CC(C)C(=O)NC(Sc1ccccc1)C(Cl)(Cl)Cl (stereo not drawn) | inactive: 0.2%
c1nnnn1CCn1cnnn1 | inactive: -0.3%
COc1ccc(C2=NCC(CBr)S2)cc1 (stereo not drawn) | inactive: 0.8%
CC(=O)N1C2C3N(C(C)=O)C1C1N(C(C)=O)C(C(N1C(C)=O)N3C(C)=O)N2C(C)=O | inactive: 0.1%
O=[N+]([O-])c1cccc2n[nH]nc12 | inactive: -0.1%
Cc1ccc(NP(=O)(Oc2ccccc2)Oc2ccccc2)nc1 | inactive: -0.1%
O=[N+]([O-])c1cc([N+](=O)[O-])c(CCNc2ccccc2)c([N+](=O)[O-])c1 | inactive: 1%
CCc1nc2c(n1)c1c(non1O)c1c2no[n+]1[O-] | inactive: 0.2%
Nc1ccc([As](=O)(O)c2ccc(N)cc2)cc1 | inactive: 0%
C[N+]1=C2C=CC=CC=C2SC12C([N+](=O)[O-])=CC([N+](=O)[O-])=C[C-]2[N+](=O)[O-] (stereo not drawn) | inactive: -0.2%
CCN(/C(=N/P(=O)(N1CCOCC1)N1CCOCC1)N1CCOCC1)c1ccc(OC)cc1 | inactive: -0.3%
CC(C)=N/N=C(\N)N[N+](=O)[O-] | inactive: 0%

Structure (SMILES) | activation
CC(C)c1nc(Nc2ccccc2)n(P(=O)(N(C)C)N(C)C)n1 | inactive: 0.2%
CN(C)C(=O)OCCc1n(C)cc[n+]1C | inactive: -0.1%
c1cc(-c2nn[nH]n2)ccc1-c1nn[nH]n1 | inactive: 0%
CC1CCN(C(=O)Oc2c(Cl)cc(Cl)c3cccnc23)CC1 | inactive: -0.1%
O=P1(N(CCCl)CCCl)OCCCS1 (stereo not drawn) | inactive: 0.3%
O=C(Nc1cc([As](=O)(O)O)ccc1O)c1ccccc1 | inactive: -0.1%
CC(C)(C)C(=O)NC(Sc1ccncn1)C(Cl)(Cl)Cl (stereo not drawn) | inactive: 0.1%
O=[N+]([O-])c1ncn(CCn2ncnc2[N+](=O)[O-])n1 | inactive: 0.5%
O=[N+]([O-])c1cccc(NC2=NCC(CBr)S2)c1 (stereo not drawn) | inactive: -0.2%
COC(=O)C1(C)COP(=O)(Nc2ccccc2)OC1 (stereo not drawn) | inactive: 0%
O=C(O)CNc1ccc([As](=O)(O)O)cc1 | inactive: -0.3%
O=C(O)c1ccccc1[As](=O)(O)O | inactive: -0.2%
CC(=O)Nc1ccc([As](=O)(O)O)cc1 | inactive: 0%
CCCC1OP(N)(=O)OCC1CC (stereo not drawn) | inactive: -0.1%
CN(C)P(=O)(N(C)C)n1c(Nc2ccccc2)nnc1-c1ccccc1 | inactive: 0.3%
O=P(Nc1nc2ccc(Cl)cc2s1)(c1ccccc1)c1ccccc1 | inactive: 0%
CCOP(=O)(Nc1ccccc1)OCC | inactive: -0.1%
Cc1cc(SC(NC(=O)c2ccc(F)cc2)C(Cl)(Cl)Cl)ncn1 (stereo not drawn) | inactive: -0.2%
CN(C(=O)Cc1ccc(Cl)c(Cl)c1)[C@H]1CCCC[C@@H]1N1CCCC1 | inactive: -0.4%
Cc1ccc(NP(=O)(Oc2ccccc2F)Oc2ccccc2F)nc1 | inactive: -0.1%
CCN(N=Nc1nonc1N)c1nonc1N | inactive: 0.1%
Nc1cccc2ccc([As](=O)(O)O)cc12 | inactive: 1.1%
NC(=O)c1cc([N+](=O)[O-])cc([N+](=O)[O-])c1N | inactive: 0.3%
CN(C(=O)Cc1ccc(Cl)c(Cl)c1)[C@H]1CCCC[C@H]1N1CCCC1 | inactive: 0.3%
Cc1ccc(N/C(=N/P(=O)(N2CCOCC2)N2CCOCC2)N2CCOCC2)cc1 | inactive: -0.1%
COc1ccccc1OP(=O)(Nc1ccc(C)cn1)Oc1ccccc1OC | inactive: -0.2%

Structure (SMILES) | activation
Cc1ccc(OP(=O)(Nc2nccs2)Oc2ccc(C)cc2)cc1 | inactive: 0.1%
Clc1ccc(Cl)c(NC2=NCC(CBr)S2)c1 (stereo not drawn) | inactive: -0.1%
CN1CCCC(OC(=O)C(c2ccccc2)c2ccccc2)C1 (stereo not drawn) | inactive: 0.2%
CC(C)CC(=O)NC(Sc1ccc(Cl)cc1)C(Cl)(Cl)Cl (stereo not drawn) | inactive: -0.1%
Nc1cc(N)c2nonc2c1[N+](=O)[O-] | inactive: -0.1%
Oc1ccccc1CNc1ccccn1 | inactive: 0.1%
O=C(NC(Sc1ccncn1)C(Cl)(Cl)Cl)c1ccccc1 (stereo not drawn) | inactive: -0.2%
O=[N+]([O-])C1C(O)C(O)C([N+](=O)[O-])C(O)C1O (stereo not drawn) | inactive: -0.2%
O=C(OC1CN2CCC1CC2)C12CC3CC(CC(C3)C1)C2 (stereo not drawn) | inactive: -0.2%
Cc1cc(=O)[nH]c(N[N+](=O)[O-])n1 | inactive: 0.1%
Cc1c2c(nc3ccccc13)SC(C(Cl)Cl)C2 (stereo not drawn) | inactive: 0%
COc1ccc2nc(NP(=O)(c3ccccc3)c3ccccc3)sc2c1 | inactive: -0.2%
COc1cc(I)ccc1[As](=O)(O)O | inactive: -0.2%
O=P1(N(CCCl)CCCl)OCCCN1CCCl (stereo not drawn) | inactive: 0.1%
O=P1(N(CCCl)CCCl)Nc2ccccc2N1 | inactive: -0.4%
COc1ccc(N/C(=N/P(=O)(N2CCOCC2)N2CCOCC2)N2CCOCC2)cc1 | inactive: -0.1%
O=[N+]([O-])c1cc(Oc2ccc([N+](=O)[O-])cc2C(F)(F)F)cc([N+](=O)[O-])c1 | inactive: 1.2%
C[As](=O)(O)c1cccc(C(=O)O)c1 | inactive: 0.1%
O=[As](O)(c1ccc(O)cc1)c1ccccc1O | inactive: -0.1%
COc1cc(C(=O)NCC2(N3CCOCC3)CCCCC2)ccc1OCC(C)C | inactive: -0.1%
O=[N+]([O-])c1ccc(-c2cc([N+](=O)[O-])c(O)c([N+](=O)[O-])c2)cc1 | inactive: 0.3%
Cc1ccc2nc3c(c(C)c2c1)CC(C(Cl)Cl)S3 (stereo not drawn) | inactive: 0.4%
Cc1ccc(OP(=O)(Nc2ccc([N+](=O)[O-])cn2)Oc2ccc(C)cc2)cc1 | inactive: 0.3%
[N-]=[N+]=NC1CCCCC1NC(=O)c1cc([N+](=O)[O-])cc([N+](=O)[O-])c1 (stereo not drawn) | inactive: 0.1%
CC(C)c1ccc(OP(=O)(Nc2ccccn2)Oc2ccccc2F)cc1 (stereo not drawn) | inactive: 0.5%
